In PubChem BioAssay AID1632 (University of Pittsburgh Molecular Library Screening Center, 2009):
The list shows a part of the results, in another mix than the full data. Results filed as inconclusive are left out.

Target: hexokinase 1 [Trypanosoma brucei]
Assay: TbHK1 enzyme inhibition, concentration series – biochemical, IC50, dose response (AID 1632)
Conditions: recombinant TbHK1 enzyme assay, absorbance read-out, at 100 µM, stronger effect = higher value

SMILES: O=c1c2ccccc2[se]n1-c1ccccc1
- inhibition: 85.7%
